Measurements published in patent US20020115211A1, “A METHOD FOR IN VITRO MATURATION OF HUMAN GAMETES” (MEDI-CULT A/S, priority 1998, published 2002).
Several values for one entry are separate records, joined by “and”; a condition that tells them apart may be missing. Equal values may be shown once.

Assays:
PCO patients = test: Impact of FSH priming on oocytes obtained for IVM, maturation rate, cleavage rate and pregnancy (Example 2); assay type: in vivo, human; conditions: for MF-II (%): percentage of cumulus enclosed oocytes; for cleavage (%): percentage of mature MF-II oocytes
Text: Eighteen patients are recruited among PCO patients referred for IVF. Included in the study are all women with typical PCO patterns at ultrasound, which means more than ten follicles in one plane located subcapsulary in each ovary. Excluded are all patients with body weight more than 20% of normal for the same height and women with contradictions for pregnancy. Also excluded are patients with elevated prolactin and FSH value (>10 IU) on cycle day 3. The study is approved by the local ethical committee. All women particiin the study after written consent.
The women are randomly allocated to three groups according to their entrance in the study. Group I (n=6 cycles) receive no stimulation, Group II (n=6 cycles) receive rec-FSH from day 3 and given from 3 to 7 days, aspiration is performed within 24 hours after the last injection. In group III (n=8 cycles), stimulation with rec-FSH (Gonal-F) as in group II, but oocyte recovery is performed 48-72 hours after the last injection.
Immature oocyte collection is performed between cycle day 7 and 13 by use of an aspiraneedle from Cook Ltd described by Carl Wood. The aspiration pressure is reduced to 100 mmHg on the assumption that the immature cumulus or egg may be more susceptito mechanical injury, or the needle in a small follicle may directly damage the egg if the egg is sucked forcefully from a small volume of fluid into the end of the needle. The follicles are punctured. After aspiration the needle is flushed with Earles Balanced Salt solution with Hepes and bicabonate buffers plus heparin (100IU/ml) as described by Trounson et al.
The follicular aspirates are transferred in tubes to the laboratory and washed on an emfilter with a pore size of 70 μm. Erythrocytes and other small cells are washed through the filter and oocytes and larger fragments of cells are collected in Petri culture dishes. The immature oocytes are identified and graded based on the presence or abof cumulus cells as ether complete multilayered, sparse or nude.
Oocytes are matured in tissue culture medium 199 (TCM 199; Sigma) supplemented with Sodiumpyruvate 0.3mM, rec-FSH 0.075IU/ml (Gonal-F; Serono), hCG 0.05 IU/ml (Profasi; Serono), and albumin 1%. Later the medium is supplemented with oestradiol 1μg/ml, an increased concentration of HSA (5%) or serum from the patient (10%) instead of albumin.
Fertilization with ICSI is performed on all Metaphase II oocytes and the oocytes are checked for the presence of two pronuclei the day after insemination and cleavage of the 2PN-oocytes is registered on day 2 after insemination.
The statistical methods include Student´s t-test. A two-tailed p<0.05 is considered statistisignificant.

immature human gametes = test: Lowering the HSA content of the maturation medium, pregnancy rates; assay type: cell-based; conditions: content in the medium lowered from 5% to 0.5%; preliminary results
[1] = group 2: rec-FSH, aspiration without delay
[2] = group 2 with FSH priming compared to group 1 (unstimulated) and group 3
[3] = group 3 (FSH primed, aspirated with delay) compared to group 1
[4] = group 3: rec-FSH, aspiration 48-72 hours after last injection
[5] = the pregnant patient of group 3, stimulation for 3 days with 150 IU

## rec-FSH: Recombinant follicle stimulating hormone (Gonal-F; Serono) given to patients from cycle day 3
PCO patients; after FSH stimulation versus no stimulation
  oocytes enclosed by cumulus that could be used for in vitro maturation: Significantly more
PCO patients; group 2: rec-FSH stimulation, aspiration without delay (within 24 hours after last injection), 6 patients
  no oocytes aspirated: 28
PCO patients; [1]
  MF-II no: 6
  Pregnancy no: 0
  Transfer no: 1
  no oocytes for IVM: 26 and 26^1
  MF-II (%): 23%
  cleavage (%): 16%
PCO patients; [2]
  cleavage rate, comparison between groups: significantly reduced
  maturation rate, comparison between groups: significantly reduced
PCO patients; [3]
  cleavage rate, comparison between groups: no difference
  maturation rate, comparison between groups: significantly increased
PCO patients; group 3, two patients with 48 hours delay between last injection and aspiration
  time after which MF-II oocytes were seen (late maturation): 56 h
PCO patients; group 3: rec-FSH stimulation, oocyte recovery 48-72 hours after last injection, 8 patients
  no oocytes aspirated: 40
PCO patients; [4]
  MF-II no: 29
  Transfer no: 8
  cleavage no: 20
  no oocytes for IVM: 35 and 35^1
  MF-II (%): 82%
  cleavage (%): 69%
PCO patients; [5]
  immature oocytes retrieved: 9
  oocytes cleaved: 5
  oocytes matured: Six

## Human Serum Albumin (HSA): Serum derived albumin supplement of the maturation medium
Immature human gametes
  effect on pregnancy rates: no effect on pregnancy rates
